As usually defined, the IC50 is the concentration that inhibits the measured activity by half.

Drawing on patent publication US6124324A, “Thiophene-ethyl thiourea compounds and use” (Hughes Institute, priority 1999, dated 2000), this text covers IC50 for 1 compound.

The target of the assay is T1, purified recombinant HIV RT (Human immunodeficiency virus type 1 group M subtype B, UniProt P04585).
T1 construct: purified recombinant HIV RT; purchased Amersham, Arlington Heights, Ill; (Quan-T-RT system)
Nature of the assay: Purified RT assay, cell-free Quan-T-RT system (scintillation proximity). Particulars: IC50 rRT, Table 1 and text. The format is biochemical. Here is the method: The synthesized compounds were tested for RT inhibitory activity (IC50 [rRT]) against purified recombinant HIV RT using the cell-free Quan-T-RT system (Amersham, Arlington Heights, Ill.), which utilizes the scintillation proximity assay principle as decribed in Bosworth, et al., 1989, Nature 341:167-168. In the assay, a DNA/RNA template is bound to SPA beads via a biotin/strepavidin linkage. The primer DNA is a 16-mer oligo(T) which has been annealed to a poly(A) template. The primer/template is bound to a strepavidin-coated SPA bead.
^3 H-TTP is incorporated into the primer by reverse transcription. In brief, ^3 H-TTP, at a final concentration of 0.5 μCi/sample, was diluted in RT assay buffer (49.5 mM Tris-Cl, pH 8.0, 80 mM KCl, 10 Mm MgCl2, 10 mM DTT, 2.5 mM EGTA, 0.05% Nonidet-P-40), and added to annealed DNA/RNA bound to SPA beads. The compound being tested was added to the reaction mixture at 0.001 μM-100 μM concentrations. […] The reaction was stopped by addition of 0.2 ml of 120 mM EDTA. The samples were counted in an open window using a Beckman LS 7600 instrument and IC50 values were calculated by comparing the measurements to untreated samples.

On to `S=C(NCCc1ccccn1)Nc1ccc(Br)cn1` [Trovirdine, reference compound], for which the IC50 turned out to be 600 nM.
